# According to patent US7432045B2 (priority 2003, dated 2008):
# Legend:
# HSV-1 KOS mutant hrR3 [1] = test system: HSV-1 KOS mutant hrR3
# HSV-1 KOS mutant hrR3 [2] = test: Inactivation of pre-adsorbed virus (virus inactivation); type: cell-based
# Procedure: (§1) Two assays were used to assess the ability of the TAT peptides to inhibit infection of Vero cells with the hrR3 virus. In both assays, the virus was preadsorbed to cells at 4° C. and entry was initiated in the presence of peptide by shifting the cultures to a permissive temperature (30-37° C.). One hour later, the peptide was rinsed off. The entry blocking activity was measured in half of the cultures, in which any extracellular virus remaining after the peptide treatment was inactivated with low pH citrate buffer. The rest of the cultures were exposed to PBS instead of citrate buffer and used to measure virus inactivation. Virus inactivation depended on persistent effects of the peptide lasting for a period of eight hours. At the end of that period, all cultures were fixed and infected cells were detected by staining with X-gal.
# (§2) Virus (m.o.i.=0.025) was preadsorbed to Vero cells for 1 h at 4° C. before cultures were exposed to TAT-C (FIG. 15A), bTAT-9X (FIG. 15B), or n50,51TAT-C (FIGS. 15C, 15D) for 1 h at 33 (FIGS. 15A, 15B), 31 (FIG. 15C), or 37° C. (FIG. 15D). […] Inhibition of entry was measured in the citrate-treated cultures, in which any remaining external virus was inactivated immediately following exposure to peptide (●). Persistent virus inactivation lasting, at least in part, for the 8 h period following exposure to peptide, was measured in the PBS-treated cultures (◯). The IC50s measured in these experiments are included in Table 5.
# cornea = test: In vivo peptide toxicity, cornea; parameters: species or system BALB/C mice; details: mouse
# Procedure: (i) Cornea: Four-6-week-old female BALB/C mice (Harlan Sprague Dawley, Indianapolis, Ind.) were anesthetized by halothane inhalation (3-5%). A 2.0 μL drop of serum-free 5×DMEM solution containing 6.1 mM EB, 6.1 mM EBX, 7.5 mM TAT-C, 7.5 mM n50,51 TAT-C, 7.5 mM TAT-Cd, or 11.2 mM bHOMd or serum-free DMEM only (control) was then placed on the cornea and the mice were returned to their cages. Each group consisted of 5 mice, except for 11.2 mM bHOMd, and 7.5 mM TAT-Cd, which consisted of 4 mice. Only the right eye in each mouse received the peptide. Treatments were given 4 times per day at least 2 hrs apart for 7 days. […] Damage to the corneal epithelium was assessed by staining with 1.0% […] and examination under a microscope with blue light. Blepharitis was scored: 1+ for noticeable puffy eyelids, 2+ for puffy eyelids with moderate crusting, 3+ for eye 50% swollen shut with severe crusting, and 4+ for eye totally swollen and crusted shut (Brandt et al., 1992). Punctate keratopathy, dendrite ulceration, and geographic ulceration were scored: 1+ for <25% of the cornea involved, 2+ for 25-50% involved, 3+ for 50-75% involved, and 4+ for >75% involved. The mean disease score for each group of mice on each day was calculated by the sum of disease scores in each group on each day divided by the numbers of mice in that group. […]
# hrR3 virions = test: Inactivation of virions in solution; type: cell-based, HSV-1; details: for IC50: 37° C.
# Procedure: Inactivation of virions: To assess the ability of peptides to inactivate virions, 3-4×10^6 pfu/mL of virus was mixed on ice with peptide in serum-free DMEM and incubated for 1 h at 4 or 37° C. Aliquots (10 μL) were diluted 1000-fold into peptide-free serum-supplemented DMEM at 23° C. and 50 μL aliquots were assayed in triplicate for infectivity in Vero cell cultures (dilution assay). Alternatively, 10 μL aliquots were diluted into 1 mL of ice-cold peptide-free serum-supplemented DMEM and the virus was pelleted as described above (centrifugation assay). Viral pellets were then resuspended in 250 μL serum-supplemented DMEM and 50 μL aliquots were assayed in triplicate for infectivity in Vero cell cultures.
# Some of the virus diluted without the addition of NaCl was pelleted immediately (Control), while the rest of the diluted virus was stored at 4° C. and pelleted 19 h later. The virus was pelleted and assayed for infectivity as described in Example 1.
# HSV-1 KOS mutant hrR3 [3] = test: LacZ+ virus (hrR3) entry assay with pre-adsorbed virus (entry block); type: cell-based; details: for loss of antiviral activity relative to non-substituted peptide: norleucine for R55 and R56, Table 4
# Procedure: LacZ^+ virus (hrR3) entry assay: Confluent Vero cell cultures in 96-well microtiter plates were switched to Hepes-buffered serum-free DMEM, cooled on ice to 4° C. for 30 min, and infected with hrR3 for 1 hour at 4° C. in 40 μL of medium. Unattached virus was removed by rinsing with ice-cold medium. Treatments with antiviral peptide SEQ ID NO:1, referred to as EB, or a control peptide which comprised the RRKK tetra-peptide (SEQ ID NO:16) attached to a scrambled version of the membrane transiting peptide RRKKLAALPLVLAAPLAVLA (SEQ ID NO:17) (referred to as EBX), or mock-treatments with peptide-free medium were carried out in serum-free DMEM as indicated. Virus entry was initiated by transferring cultures to 37° C. To inactivate any remaining extracellular virus, cultures were rinsed with PBS and exposed to low pH citrate buffer (40 mM citric acid, 10 mM KCl, 135 mM NaCl, pH 3.0, according to Highlander et al., J. Virol. 61:3356 (1987), for 1 min at 23° C. The citrate was rinsed off with PBS and cultures were maintained in serum-supplemented DMEM until they were fixed with 0.5% gluteraldehyde in 5×PBS for 30 min at 23° C., stained for β-galactosidase activity for 1 hour or overnight at 23° C. with X-gal (Fisher Biotech; BP1615-1) in 1×PBS containing […], 1.3 mM K4Fe(CN)6, and 1.3 mM K3Fe(CN)6, and scored for the presence of blue […] cells.
# In these studies, the hrR3 virus was pre-adsorbed to cells for 1 hour at 4° C. before ice cold 25 μM EB or EBX were added in serum-free DMEM. After an additional 1 hour at 4° C., cultures were shifted to 37° C. to initiate virus entry. At 15 min intervals following the temperature shift, any virus remaining outside the cells was inactivated by washing the cultures with low pH citrate buffer. Cultures were then rinsed and returned to peptide-free serum-supplemented DMEM until they were fixed and stained for β-galactosidase 8 hours after the temperature shift.
# as §1, §2
# [4] = test system: Vero, HeLa, CV-1PD, TM-1, DP-9, CEMx174, NIKS, W12E cells; test: MTS assay, eight cell lines
# [5] = 33° C., read-out: Inactivation of Pre-Adsorbed Virus 33° C. IC50
# [6] = 37° C., read-out: Inactivation of Pre-Adsorbed Virus 37° C. IC50
# [7] = 33° C., read-out: Entry Block 33° C. IC50
# [8] = 37° C., read-out: Entry Block 37° C. IC50
SMILES,"entry at 32° C. blocked (HSV-1 KOS mutant hrR3 [1]; 10 μM peptide, 1 h at 32° C.)",virus that eventually entered cells after peptide removal at 37° C. (HSV-1 KOS mutant hrR3 [1]; 100 μM peptide),"entry at 32° C. inhibited (HSV-1 KOS mutant hrR3 [1]; 100 μM peptide, 1 h at 32° C.)","reversibility of the inhibitory effect after removal of peptide (HSV-1 KOS mutant hrR3 [1]; n50,51TAT-C 10 μM, TAT-C 10 or 100 μM)",IC50 (HSV-1 KOS mutant hrR3 [2]; [5]),IC50 (HSV-1 KOS mutant hrR3 [2]; [6]),"IC50 (HSV-1 KOS mutant hrR3 [2]; both temperatures (31° C. and 37° C.), read-out: virus inactivation IC50s)","IC50 (HSV-1 KOS mutant hrR3 [2]; various temperatures, FIG. 16B, read-out: virus inactivation IC50s at various temperatures)",corneal pathology (cornea),IC50 (hrR3 virions),decrease of inhibition of entry (increase in IC50s) between 31 and 37° C. (HSV-1 KOS mutant hrR3 [3]; 31 vs 37° C.),"IC50 (HSV-1 KOS mutant hrR3 [3]; 31° C., read-out: inhibition of entry IC50)",IC50 (HSV-1 KOS mutant hrR3 [3]; [7]),"IC50 (HSV-1 KOS mutant hrR3 [3]; 37° C., FIG. 15D, read-out: inhibition of entry IC50)",IC50 (HSV-1 KOS mutant hrR3 [3]; [8]),"cytotoxicity to cells (MTS), overall [4]","concentration with no effect on virions (hrR3 virions; 1 h, 4 to 37° C., serum-supplemented DMEM)",loss of antiviral activity relative to non-substituted peptide (HSV-1 KOS mutant hrR3 [3])
"CCCC[C@H](NC(=O)[C@H](CCCNC(=N)N)NC(=O)CN)C(=O)N[C@@H](CCCC)C(=O)N[C@@H](CCCNC(=N)N)C(=O)N[C@@H](CCCNC(=N)N)C(=O)N[C@@H](CCC(N)=O)C(=O)N[C@@H](CCCNC(=N)N)C(=O)N[C@@H](CCCNC(=N)N)C(=O)N[C@@H](CCCNC(=N)N)C(=O)N[C@@H](CS)C(=O)O [n50,51TAT-C, NH2-GRnLnLRRQRRRC-COOH]",about 60%,75%,about 90%,fully reversible,215 µM,210 µM,> 200 µM,~200 µM,no evidence of corneal pathology,> 600 µM,~50 fold,1.3 µM,5.9 µM,48 µM,41 µM,,,
"CCCC[C@H](NC(=O)[C@H](CCCC)NC(=O)[C@H](CCC(N)=O)NC(=O)[C@H](CCCNC(=N)N)NC(=O)[C@H](CCCNC(=N)N)NC(=O)[C@H](CCCCN)NC(=O)[C@H](CCCCN)NC(=O)[C@H](CCCNC(=N)N)NC(=O)CN)C(=O)N[C@@H](CCCNC(=N)N)C(=O)N[C@@H](CS)C(N)=O [n55,56TAT-C, NH2-GRKKRRQnLnLRC-amide]",,,,,240 µM,160 µM,,,,> 600 µM,,,37 µM,,49 µM,generally not cytotoxic,> 200 µM,> 90%
"CCCC[C@@H](NC(=O)[C@@H](CCCC)NC(=O)[C@@H](CCC(N)=O)NC(=O)[C@@H](CCCNC(=N)N)NC(=O)[C@@H](CCCNC(=N)N)NC(=O)[C@@H](CCCCN)NC(=O)[C@@H](CCCCN)NC(=O)[C@@H](CCCNC(=N)N)NC(=O)CN)C(=O)N[C@H](CCCNC(=N)N)C(=O)N[C@H](CS)C(N)=O [n55,56TAT-Cd, NH2-GRKKRRQnLnLRC-amide]",,,,,16 µM,13 µM,,,,250 µM,,,3.9 µM,,5.3 µM,,,about half
